Data published in PMC5382891 (Scientific Reports, 2017).

Sequences of proteins named here, by UniProt entry; tags and fusion partners are left off.
UniProt P41146, whole entry: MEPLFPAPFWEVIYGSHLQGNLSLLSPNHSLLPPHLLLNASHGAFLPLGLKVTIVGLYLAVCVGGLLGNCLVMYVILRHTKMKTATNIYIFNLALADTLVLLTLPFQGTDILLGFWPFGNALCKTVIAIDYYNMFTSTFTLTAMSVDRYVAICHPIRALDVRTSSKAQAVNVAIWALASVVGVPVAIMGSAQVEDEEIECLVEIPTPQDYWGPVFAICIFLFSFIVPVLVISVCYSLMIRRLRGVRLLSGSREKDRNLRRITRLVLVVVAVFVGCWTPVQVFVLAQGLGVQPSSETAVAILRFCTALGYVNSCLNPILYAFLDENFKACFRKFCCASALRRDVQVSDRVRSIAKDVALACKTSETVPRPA

Target: human recombinant NOP receptor (Homo sapiens, UniProt P41146)
Settings: for Emax ± SEM: Table 3, mean ± SEM of at least 4 separate experiments in duplicate

For `O=C(CCCCCCN1CN(c2ccccc2)C2(CCN(C3Cc4cccc5cccc3c45)CC2)C1=O)NCCCNC(=O)CCCCCCN1CN(c2ccccc2)C2(CCN(C3Cc4cccc5cccc3c45)CC2)C1=O` (centres unmarked), the “Emax ± SEM” value was 125 ± 6 percent fluorescence intensity over the basal values.

In the case of `O=C(CCCCCCN1CN(c2ccccc2)C2(CCN(C3Cc4cccc5cccc3c45)CC2)C1=O)NCCNC(=O)CCCCCCN1CN(c2ccccc2)C2(CCN(C3Cc4cccc5cccc3c45)CC2)C1=O` (centres unmarked), the “pEC50(CL95%)” value is reported as 7.57 (7.23–7.91) and the “Emax ± SEM” value is reported as 131 ± 12 percent fluorescence intensity over the basal values.

With `O=C(CCCCCCN1CN(c2ccccc2)C2(CCN(C3Cc4cccc5cccc3c45)CC2)C1=O)NCCCCCCCCNC(=O)CCCCCCN1CN(c2ccccc2)C2(CCN(C3Cc4cccc5cccc3c45)CC2)C1=O` (centres unmarked) the “Emax ± SEM” value was 131 ± 21 percent fluorescence intensity over the basal values.

For `O=C(CCCCCCN1CN(c2ccccc2)C2(CCN(C3Cc4cccc5cccc3c45)CC2)C1=O)NCCCCNC(=O)CCCCCCN1CN(c2ccccc2)C2(CCN(C3Cc4cccc5cccc3c45)CC2)C1=O` (centres unmarked), the “Emax ± SEM” value was 135 ± 20 percent fluorescence intensity over the basal values.

`O=C(CCCCCCN1CN(c2ccccc2)C2(CCN(C3Cc4cccc5cccc3c45)CC2)C1=O)NCCCCCCCNC(=O)CCCCCCN1CN(c2ccccc2)C2(CCN(C3Cc4cccc5cccc3c45)CC2)C1=O` (centres unmarked) was tested, and the “Emax ± SEM” value was 150 ± 35 percent fluorescence intensity over the basal values and the “less potent than Ro 65-6570” value (calcium assay) was 23 fold.

`O=C(CCCCCCN1CN(c2ccccc2)C2(CCN(C3Cc4cccc5cccc3c45)CC2)C1=O)NCCCCCCNC(=O)CCCCCCN1CN(c2ccccc2)C2(CCN(C3Cc4cccc5cccc3c45)CC2)C1=O` (centres unmarked) was tested, and the “Emax ± SEM” value was 132 ± 14 percent fluorescence intensity over the basal values.
